Measured values reported in patent US20100004234A1, “SPECIFIC KINASE INHIBITORS” (Kosan Biosciences Incorporated, priority 2004, published 2010).
pIC50, pKi: −log10 of the molar value.

Amino acid sequences for entries named in this document (tags omitted).
UniProt P28482, whole entry: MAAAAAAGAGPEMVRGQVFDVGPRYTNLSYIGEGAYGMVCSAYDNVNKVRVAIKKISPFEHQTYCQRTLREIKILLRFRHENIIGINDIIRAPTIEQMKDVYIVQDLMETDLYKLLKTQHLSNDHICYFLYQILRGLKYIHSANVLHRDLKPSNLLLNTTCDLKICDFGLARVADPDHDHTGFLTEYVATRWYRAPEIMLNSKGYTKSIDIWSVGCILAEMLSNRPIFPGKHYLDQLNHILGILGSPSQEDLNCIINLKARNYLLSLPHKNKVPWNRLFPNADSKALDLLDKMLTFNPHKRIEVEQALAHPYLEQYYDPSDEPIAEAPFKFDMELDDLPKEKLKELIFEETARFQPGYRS
UniProt Q02750, whole entry: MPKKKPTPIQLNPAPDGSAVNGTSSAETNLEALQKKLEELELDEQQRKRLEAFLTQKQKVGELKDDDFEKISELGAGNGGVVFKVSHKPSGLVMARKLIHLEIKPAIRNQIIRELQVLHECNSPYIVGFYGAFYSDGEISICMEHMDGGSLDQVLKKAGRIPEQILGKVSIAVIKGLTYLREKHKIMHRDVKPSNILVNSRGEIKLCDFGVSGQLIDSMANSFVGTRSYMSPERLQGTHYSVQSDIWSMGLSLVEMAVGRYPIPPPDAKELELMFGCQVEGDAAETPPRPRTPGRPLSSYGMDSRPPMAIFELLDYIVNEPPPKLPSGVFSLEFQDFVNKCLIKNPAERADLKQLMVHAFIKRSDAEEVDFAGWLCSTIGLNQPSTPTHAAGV

Columns and labels:
[1] = system: SKOV3 (ovarian cancer cell line, wild-type B-Raf); test: Cell proliferation assay; type: cell-based; details: read-out: Cell Line IC50 SKOV3, Table 7
[2] = system: HT29 (Human colon, B-Raf V599E); test: Cell proliferation assay (Cell Titer Glo); type: cell-based; details: read-out: Cell Line IC50 HT29; Table 7; HT29 human colon cancer, V600E B-Raf
[3] = system: COLO829 (Human melanoma, B-Raf V599E); test: Cell proliferation assay (Cell Titer Glo); type: cell-based; details: read-out: Cell Line IC50 COLO829, Table 7, V600E B-Raf
ERK2 = ERK2 (UniProt P28482); details: Table 7
MEK1 = MEK1 (Homo sapiens, UniProt Q02750); details: cited from earlier work

| SMILES | pIC50 [1] | pIC50 [2] | pIC50 [3] | ERK2 Inhibition kinact. (ERK2) | pKi (ERK2; read-out: ERK2 Inhibition Ki) | pIC50 (MEK1) |
| --- | --- | --- | --- | --- | --- | --- |
| C[C@H]1C/C=C\C(=O)[C@@H](O)[C@@H](O)C[C@H]2O[C@@H]2c2cc(OCCCN3CCOCC3)cc(O)c2C(=O)O1 | 6.07 | 6.54 | 7.33 |  |  |  |
| C[C@H]1C/C=C\C(=O)[C@@H](O)[C@@H](O)C[C@H]2O[C@@H]2c2cc(OCCCN3CCN(C)CC3)cc(O)c2C(=O)O1 |  | 6.68 | 7.38 | 5 ± 1 × 10^−3 sec^−1 | 5.51 |  |
| COc1cc(O)c2c(c1)/C=C/C[C@@]1(O)C(C=CC(=O)[C@H]1O)[C@H](C)OC2=O (some centres unmarked) |  |  |  |  |  | 7.23 |
